# Experimental data from patent publication US20050196744A1 (priority 2004, published 2005).
# Sequences of proteins named here, by UniProt entry; tags and fusion partners are left off.
# UniProt P23977, whole entry D79E: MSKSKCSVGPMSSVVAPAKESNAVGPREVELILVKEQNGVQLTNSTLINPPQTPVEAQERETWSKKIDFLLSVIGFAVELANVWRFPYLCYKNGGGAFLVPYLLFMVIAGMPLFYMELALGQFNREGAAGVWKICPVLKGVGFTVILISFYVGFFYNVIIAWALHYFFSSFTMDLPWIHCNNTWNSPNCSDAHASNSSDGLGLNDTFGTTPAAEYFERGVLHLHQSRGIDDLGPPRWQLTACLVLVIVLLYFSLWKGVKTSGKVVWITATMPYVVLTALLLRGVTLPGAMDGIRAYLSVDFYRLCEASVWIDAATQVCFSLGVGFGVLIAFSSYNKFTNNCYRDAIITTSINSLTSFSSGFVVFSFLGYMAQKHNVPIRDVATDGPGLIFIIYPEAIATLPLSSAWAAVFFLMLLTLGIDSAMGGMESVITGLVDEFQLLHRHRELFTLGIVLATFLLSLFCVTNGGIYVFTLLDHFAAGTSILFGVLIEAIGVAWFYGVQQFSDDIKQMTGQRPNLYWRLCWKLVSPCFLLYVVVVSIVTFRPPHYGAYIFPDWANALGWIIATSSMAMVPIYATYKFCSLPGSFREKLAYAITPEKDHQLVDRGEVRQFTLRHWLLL
# Assays:
# [1] = target: T1, D79E DAT (Rattus norvegicus, UniProt P23977, D79E); experiment: [3H]-WIN 35,428 binding / displacement at CHO cells stably expressing D79E DAT; settings: comparison of Ki values
# T1 construct: expressed in transfected cells; host or cells: CHO-K1, stably transfected; intact attached monolayers
# Experimental: Ligand binding assays. […] Nonradioactive competitor concentrations were as indicated above for uptake inhibition. […] Membranes were aspirated with a Brandel harvester onto GF/B glass-fiber filter paper, washed with 3×5 ml cold binding buffer, and the filters measured for radioactivity via scintillation counting. For all binding assays, data were analyzed with the GraphPad Prism 2.0 software to obtain Kd, Ki and Bmax values.
# [2] = target: T1, D79E DAT; experiment: [3H]-dopamine uptake and uptake inhibition, CHO cells stably expressing D79E DAT; format: cell-based; settings: comparison of Ki values
Structure (SMILES),"loss of binding affinity ([3H]-WIN 35,428 displacement) caused by the D79E mutation (D79E vs WT DAT) [1] [fold]",loss of dopamine uptake inhibition potency caused by the D79E mutation (D79E vs WT DAT) [2]
"C[C@H](N)Cc1ccccc1 [(+)-Amphetamine, S(+)-amphetamine]",9,5 fold
"C[C@@H](N)Cc1ccccc1 [(−)-Amphetamine, R(−)-amphetamine]",–,not significantly affected
